Assay results published in PubChem BioAssay AID1347055 (National Center for Advancing Translational Sciences (NCATS), 2019).
Only a part is listed here, and it is no random draw. Inconclusive results are not listed. Calls of active or inactive are those of the source. Calls follow the shape of the dose curve; as a rule, active = well fitted inhibition curve with a large enough effect; inconclusive = small, poorly fitted or top-dose-only effect, or effect the other way; inactive = flat fitted curve, though single readings scatter.

Sequences of proteins named here, by UniProt entry; tags and fusion partners are left off.
UniProt P07954, whole entry: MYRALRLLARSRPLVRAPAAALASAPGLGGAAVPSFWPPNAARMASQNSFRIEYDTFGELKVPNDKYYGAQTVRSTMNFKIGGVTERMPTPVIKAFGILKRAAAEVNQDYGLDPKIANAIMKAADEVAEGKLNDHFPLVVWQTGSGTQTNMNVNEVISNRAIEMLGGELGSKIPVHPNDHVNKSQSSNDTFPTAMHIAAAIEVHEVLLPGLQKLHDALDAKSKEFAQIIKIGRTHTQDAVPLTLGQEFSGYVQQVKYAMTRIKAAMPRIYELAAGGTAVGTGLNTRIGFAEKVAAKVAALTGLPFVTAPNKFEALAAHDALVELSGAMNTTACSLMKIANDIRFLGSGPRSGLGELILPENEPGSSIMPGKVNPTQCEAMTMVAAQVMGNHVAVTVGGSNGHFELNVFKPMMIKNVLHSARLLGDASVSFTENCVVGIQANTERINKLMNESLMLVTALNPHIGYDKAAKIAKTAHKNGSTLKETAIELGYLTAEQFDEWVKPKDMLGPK

Each molecule was assayed against Fumarate hydratase, mitochondrial (Homo sapiens) (UniProt P07954) (assay: Identification of activators of human fumarate hydratase by quantitative high-throughput screening). Details: FH coupled MDH/diaphorase resazurin fluorescence, 15 min; at 79.9 µM (top of the series) unless noted.
Description: Fumarate hydratase (FH) is a metabolic enzyme that is part of the Krebs-cycle, and reversibly catalyzes the hydration of fumarate to malate. Mutations of the FH gene have been associated with fumarate hydratase deficiency (FHD), hereditary leiomyomatosis, renal cell cancer (HLRCC), and other diseases. Currently there are no high-quality small molecule probes for studying human fumarate hydratase. To address this, we developed a quantitative high throughput screening (qHTS) FH assay and screened a total of 57,037 compounds in dose-response. While no inhibitors of FH were confirmed, a series of phenyl-pyrrolo-pyrimidine-diones (12 compounds) were identified as activators of human fumarate hydratase. […] The binding of two compounds from the series to human fumarate hydratase was confirmed by microscale thermophoresis. The low hit rate in this screening campaign confirmed that FH is a "tough target" to modulate, and the small molecule activators of human fumarate hydratase reported here may serve as a starting point for further optimization and development into cellular probes of human FH and potential drug candidates.
For primary high-throughput screen, 3 ul of FH solution (containing 13.33nM human fumarate hydratase, 13.33IU/ml malic dehydrogenase, 0.2mM NAD, 0.067mg/ml diaphorase and 0.067mM resazurin in the assay buffer (50 mM Tris pH 8.0, 5 mM MgCl2, 0.01% Brij 3) was dispensed into each well in a black solid bottom 1536-well assay plate (Greiner Bio-One) using a BioRAPTR FRD dispenser (Beckman Coulter, Brea, CA). A 1536-well pintool dispenser outfitted with 20 nl pins (Wako Automation, San Diego, CA) was used to transfer 20 nL of DMSO-solubilized compound (Cherrypick plates) to each 1536-well assay plate. Each compound was screened at five concentrations: 15 nM, 151 nM, 1.5 uM, 15.4 uM, 76.9 uM. Following compound transfer, plates were incubated in room temperature for 10 minutes. 1 uL of substrate solution containing fumaric acid (160 uM) was dispensed via BioRAPTR FRD to initiate the reaction. Plates were immediately transferred to a ViewLux microplate imager (PerkinElmer, Waltham, MA), and any resulting resorufin fluorescence was measured (exitation/emission, 525/598 nm) at 0 and 15 minutes. The exposure time is 1 second. Fluorescence from each well was normalized using enzyme-free and DMSO-treated control wells on each plate, and changes in fluorescence (delta RFU) were calculated using the difference in fluorescent signal for each well at 15 minutes versus 0 minutes.
% is scaled to controls: 0 for no effect and ±100 for the full control effect.
Also: the screen sought activators but most active calls are inhibition curves; nearly all actives have a fitted effect of over 45% in size.

Compound	activity change, negative = inhibition
CCOC(=O)N1CCC(=O)CC1	inactive: -1.62% [at 53.3 µM]
COc1ccccc1C(=O)NCC1(N2CCOCC2)CCCCC1	inactive: -1.64%
O=C(NCC1(N2CCOCC2)CCCCC1)c1ccc(Cl)cc1	inactive: -28.9%
CCOC(=O)C(=O)CBr	inactive: 2.41% [at 53.3 µM]
CCOc1ccc(C(=O)NCC2(N3CCOCC3)CCCCC2)cc1	inactive: 1.74%
CCCOc1cccc(C(=O)NCC2(N3CCOCC3)CCCCC2)c1	inactive: -0.885%
CCCCOc1ccccc1C(=O)NCC1(N2CCOCC2)CCCCC1	inactive: 7.51%
O=C(NCC1(N2CCOCC2)CCCCC1)c1ccccc1Br	inactive: 3.07%
CCC(=O)N(c1ccccc1)C1CCNCC1	inactive: 6.31% [at 53.3 µM]
O=C(NCC1(N2CCOCC2)CCCCC1)c1ccccc1[N+](=O)[O-]	inactive: -35.1%
O=C(NCC1(N2CCOCC2)CCCCC1)c1ccc([N+](=O)[O-])cc1	inactive: -1.97%
O=C(NCC1(N2CCOCC2)CCCCC1)c1ccccc1	inactive: 4.62%
CC(=O)N1CCc2ccc(N(C(=O)/C=C/c3cccc(C#N)c3)C3CCN(CCC4CCCC4)CC3)cc21	inactive: 1.31%
CN(C)C1(CNC(=O)c2ccc(C(C)(C)C)cc2)CCCCC1	inactive: -14.8%
Cc1ccccc1C(=O)NCC1(N(C)C)CCCCC1	inactive: 3.04%
CC(C)(C)c1ccc(C(=O)NCC2(N3CCOCC3)CCCCC2)cc1	inactive: -6.83%
COc1cc(C(=O)NCC2(N3CCOCC3)CCCCC2)cc(OC)c1OC	inactive: 5.18%
